Structures are written as SMILES. The entries are a selection whose mix differs from that of the whole data set. Activity calls are given as the source filed them. Cut-off read from the data, not from the text of the source: active = binding response below about 49% or above about 150%; inactive = in between.

Amino acid sequences for entries named in this document (tags omitted).
UniProt P09471, whole entry, looked up: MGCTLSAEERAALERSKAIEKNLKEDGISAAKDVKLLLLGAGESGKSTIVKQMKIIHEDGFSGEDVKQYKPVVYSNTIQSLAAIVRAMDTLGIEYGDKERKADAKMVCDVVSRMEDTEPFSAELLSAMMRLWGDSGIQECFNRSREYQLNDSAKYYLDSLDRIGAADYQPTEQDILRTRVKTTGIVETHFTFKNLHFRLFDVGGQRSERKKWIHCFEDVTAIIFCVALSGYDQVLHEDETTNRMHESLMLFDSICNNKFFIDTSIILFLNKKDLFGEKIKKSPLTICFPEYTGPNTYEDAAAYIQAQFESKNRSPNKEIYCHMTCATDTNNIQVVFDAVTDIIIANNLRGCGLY

The target in this experiment is Guanine nucleotide-binding protein G(o) subunit alpha (Homo sapiens) (UniProt P09471). Description: modulators of RGS4 binding to Galphao, primary screen, biochemical, multiplexed bead flow cytometry (AID 1415).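 Note: fluorescent Galphao activated with aluminum fluoride binding bead-coupled RGS4.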 The settings on record: at 10 µM, actives lie on both sides. Background: In flow cytometry, cells or beads pass a laser one at a time.
In the case of `CCC(=O)N1C2C3N(C(=O)CC)C1C1N(C(=O)CC)C(C(N1C(=O)CC)N3C(=O)CC)N2C(=O)CC`, the binding response (% of control) is inactive: 115%. For `COC(=O)c1cc2c(s1)N=C(c1ccccc1)N(C)P2(=O)N1CCOCC1` (configuration not stated) the value was inactive: 100%. Then `Cc1ccc(OP(=O)(Nc2ccccn2)Oc2ccc(C)cc2)cc1`, with inactive: 101%; and `CC(=O)NC(SC(=S)N(CC(C)C)CC(C)C)C(Cl)(Cl)Cl` (configuration not stated), with inactive: 106%. For `Cc1ccccc1OP(=O)(Nc1ccccn1)Oc1ccccc1C` the value was inactive: 99.3%; for `O=c1c2cc([N+](=O)[O-])ccc2[nH]c2c([N+](=O)[O-])cc([N+](=O)[O-])cc12`, inactive: 98.7%; for `CN(C)C(=O)Oc1noc2ccccc12`, inactive: 96.5%. In the case of `c1ccc(-c2nn[nH]n2)c(-c2nn[nH]n2)c1`, the binding response (% of control) was inactive: 79.2%. For `CCOC(=O)NC(Sc1ccccc1)C(Cl)(Cl)Cl` (configuration not stated) the value was inactive: 78.7%; for `Cc1ccc(NP(=O)(Oc2cccc(C)c2)Oc2cccc(C)c2)nc1`, inactive: 101%. In the case of `O=C(NC1CCS(=O)(=O)C1)NP(=S)(Oc1ccccc1)Oc1ccccc1` (configuration not stated), the binding response (% of control) is inactive: 99.8%. Then `CCNC(=S)/N=C(\N)N[N+](=O)[O-]`, with inactive: 98.3%; and `C[C@H]1OP(=O)(Oc2ccccc2)C[C@@H]2O[C@@H]21` (some centres not stated), with inactive: 102%; and `C[C@@H]1C=CCP(=O)(Oc2ccccc2)O1` (some centres not stated), with inactive: 99.3%. Turning to `CC(=O)Nc1ccc([As](=O)(O)O)c(O)c1`, the binding response (% of control) is inactive: 106%. Then `CC(=O)Nc1ccc(Oc2c([N+](=O)[O-])cc([N+](=O)[O-])cc2[N+](=O)[O-])cc1`, with inactive: 101%; and `O=P1(Nc2nc3ccc(Cl)cc3s2)COc2ccccc2O1` (configuration not stated), with inactive: 103%. Then `CCOc1ccc(C2=NCC(CBr)S2)cc1` (configuration not stated), with inactive: 108%. For `CC(C)(C)C(=O)NC(Sc1ccccc1)C(Cl)(Cl)Cl` (configuration not stated) the value was inactive: 94%. In the case of `O=P(Nc1nccs1)(c1ccccc1)c1ccccc1`, the binding response (% of control) is inactive: 98.5%. With `CC(C)C(=O)NC(Sc1ccccc1)C(Cl)(Cl)Cl` (configuration not stated), the binding response (% of control) is inactive: 104%. Then `c1nnnn1CCn1cnnn1`, with inactive: 93.8%. Then `O=[As](O)(c1ccccc1)c1ccc(O)cc1`, with inactive: 85.1%; and `O=[N+]([O-])c1ncn(CCn2cnc([N+](=O)[O-])n2)n1`, with inactive: 101%; and `CC(=O)NC(SC(=S)N(C)C)C(Cl)(Cl)Cl` (configuration not stated), with inactive: 105%.

Regarding `O=C(OC1CN2CCC1CC2)c1cccc(Cl)c1` (configuration not stated), the binding response (% of control) is inactive: 92.6%.

Consider `C(Cc1nn[nH]n1)Cc1nn[nH]n1`, for which the binding response (% of control) is inactive: 103%.

As to `Nc1ccc([As](=O)(O)c2ccc([N+](=O)[O-])cc2)cc1`, the binding response (% of control) was inactive: 93.8%.

With `O=P(Nc1ccccn1)(c1ccc(Br)cc1)c1ccc(Br)cc1`, the binding response (% of control) was inactive: 88.4%. Regarding `O=P(Nc1nc2ccccc2s1)(c1ccccc1)c1ccccc1`, the binding response (% of control) was inactive: 98.8%. For `C[C@H]1OP(=O)(Oc2ccccc2)[C@H](O)[C@H](O)[C@H]1N=[N+]=[N-]` (some centres not stated), the binding response (% of control) was inactive: 101%. For `O=[N+]([O-])c1ncn(CCn2ncnc2[N+](=O)[O-])n1` the value was inactive: 103%. Then `CC(C)(C)C(=O)NC(Sc1ccncn1)C(Cl)(Cl)Cl` (configuration not stated), with inactive: 100%. For the molecule `O=C(O)CNc1ccc([As](=O)(O)O)cc1`, the binding response (% of control) is inactive: 121%.

Consider `O=[N+]([O-])c1cccc(NC2=NCC(CBr)S2)c1` (configuration not stated), for which the binding response (% of control) was inactive: 103%. For `O=C(Nc1cc([As](=O)(O)O)ccc1O)c1ccccc1` the value was inactive: 111%. For `CCN(/C(=N/P(=O)(N1CCOCC1)N1CCOCC1)N1CCOCC1)c1ccc(OC)cc1` the value was inactive: 101%; for `Nc1ccc([As](=O)(O)c2ccc(N)cc2)cc1`, inactive: 104%; for `C[N+]1=C2C=CC=CC=C2SC12C([N+](=O)[O-])=CC([N+](=O)[O-])=C[C-]2[N+](=O)[O-]` (configuration not stated), inactive: 89.7%. Then `CC1CCN(C(=O)Oc2c(Cl)cc(Cl)c3cccnc23)CC1`, with inactive: 93%; and `CC(C)=N/N=C(\N)N[N+](=O)[O-]`, with inactive: 96.4%. Consider `CN(C)C(=O)OCCc1n(C)cc[n+]1C`, for which the binding response (% of control) is inactive: 101%. Then `COc1ccc(C2=NCC(CBr)S2)cc1` (configuration not stated), with inactive: 103%.

For `Cc1ccc(NP(=O)(Oc2ccccc2)Oc2ccccc2)nc1`, the binding response (% of control) is inactive: 105%. For `O=[N+]([O-])c1cc([N+](=O)[O-])c(CCNc2ccccc2)c([N+](=O)[O-])c1` the value was inactive: 102%; for `CCc1nc2c(n1)c1c(non1O)c1c2no[n+]1[O-]`, inactive: 104%; for `CC(=O)N1C2C3N(C(C)=O)C1C1N(C(C)=O)C(C(N1C(C)=O)N3C(C)=O)N2C(C)=O`, inactive: 103%. Take `O=[N+]([O-])c1cccc2n[nH]nc12`: the binding response (% of control) was inactive: 99.2%.

Take `Oc1ccccc1CNc1ccccn1`: the binding response (% of control) was inactive: 104%. Consider `O=C(NC(Sc1ccncn1)C(Cl)(Cl)Cl)c1ccccc1` (configuration not stated), for which the binding response (% of control) is inactive: 101%.

As for `Cc1c2non([O-])c-2c(C)[n+](=O)[n+]1[O-]`, the binding response (% of control) is inactive: 93.3%.

On to `Nc1cc(N)c2nonc2c1[N+](=O)[O-]`, for which the binding response (% of control) was inactive: 104%.

Source of the values: PubChem BioAssay AID1415 (NMMLSC, 2008).
